The results in this text go back to PubChem BioAssay AID743261 (The Scripps Research Institute Molecular Screening Center, 2014).

The chains behind the UniProt entries cited, without tags or fusion partners.
UniProt Q01970, whole entry: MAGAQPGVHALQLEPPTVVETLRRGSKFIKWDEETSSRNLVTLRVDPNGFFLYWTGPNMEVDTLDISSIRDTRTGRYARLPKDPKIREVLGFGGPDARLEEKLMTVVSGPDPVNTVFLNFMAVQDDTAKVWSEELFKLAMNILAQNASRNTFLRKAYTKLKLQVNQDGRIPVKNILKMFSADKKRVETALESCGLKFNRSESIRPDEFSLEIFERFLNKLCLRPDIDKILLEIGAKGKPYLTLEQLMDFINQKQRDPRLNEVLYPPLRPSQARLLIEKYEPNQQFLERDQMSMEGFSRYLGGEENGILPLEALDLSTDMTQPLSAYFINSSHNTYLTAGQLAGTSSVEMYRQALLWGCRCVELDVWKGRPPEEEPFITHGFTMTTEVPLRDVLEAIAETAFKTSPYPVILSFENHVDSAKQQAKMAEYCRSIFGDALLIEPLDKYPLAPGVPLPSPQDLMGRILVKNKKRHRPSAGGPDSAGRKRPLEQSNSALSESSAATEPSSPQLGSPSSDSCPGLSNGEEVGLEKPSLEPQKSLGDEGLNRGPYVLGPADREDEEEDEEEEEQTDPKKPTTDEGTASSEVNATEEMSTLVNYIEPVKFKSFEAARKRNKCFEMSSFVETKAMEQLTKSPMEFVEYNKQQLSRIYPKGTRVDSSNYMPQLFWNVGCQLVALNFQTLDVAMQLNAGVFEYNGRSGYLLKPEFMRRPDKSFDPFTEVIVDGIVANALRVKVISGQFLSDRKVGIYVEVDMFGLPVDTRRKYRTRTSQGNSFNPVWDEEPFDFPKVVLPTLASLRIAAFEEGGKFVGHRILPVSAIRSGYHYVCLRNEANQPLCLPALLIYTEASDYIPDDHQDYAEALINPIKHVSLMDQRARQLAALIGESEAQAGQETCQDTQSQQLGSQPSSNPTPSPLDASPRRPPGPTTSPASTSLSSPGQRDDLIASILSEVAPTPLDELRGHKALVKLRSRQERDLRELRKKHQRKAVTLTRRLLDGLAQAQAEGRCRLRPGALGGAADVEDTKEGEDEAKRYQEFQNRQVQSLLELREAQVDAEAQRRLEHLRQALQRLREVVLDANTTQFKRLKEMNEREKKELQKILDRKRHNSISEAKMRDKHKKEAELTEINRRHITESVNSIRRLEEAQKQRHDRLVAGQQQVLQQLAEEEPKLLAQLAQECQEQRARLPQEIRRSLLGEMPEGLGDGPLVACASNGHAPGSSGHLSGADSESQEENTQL

Only a part is listed here, and it is no random draw. Active and inactive are the calls of the source. Rule as the data show it: active = inhibition above about 11%; inactive = the rest.

The experiment concerns the target 1-phosphatidylinositol 4,5-bisphosphate phosphodiesterase beta-3 (Homo sapiens) (UniProt Q01970). Kind of experiment: PLC-beta3 inhibitor confirmation, biochemical, fluorescence, purified enzyme (AID 743261). To be noted: purified PLC-beta3, fluorogenic substrate fluorescence; at 12.3 µM; hits give high values.
With `O=[N+]([O-])c1cc([N+](=O)[O-])c(C(F)(F)F)c([N+](=O)[O-])c1O`, the inhibition is inactive: -6.44%.

One may read the inhibition as the change of the read-out against control, counted positive when it falls.
